How the values were obtained:
MDCK-II-MDR1 cells = details: pH 7, iso-pH method
P-gp (MDR1) = assay: in vitro; details: dog

logPapp, A⟶B (MDCK-II-MDR1 cells): -6.89 P in cm/s
efflux ratio (P-gp (MDR1); MDCK-MDR1, pH 5): 0.6
efflux ratio (P-gp (MDR1); MDCK-MDR1, pH 6): 1.4
efflux ratio (P-gp (MDR1); MDCK-MDR1, pH 7): 6
efflux ratio (P-gp (MDR1); MDCK-MDR1, pH 8): 26
SMILES: COc1cccc2c1C(=O)c1c(O)c3c(c(O)c1C2=O)C[C@@](O)(C(=O)CO)C[C@@H]3O[C@H]1C[C@H](N)[C@H](O)[C@H](C)O1 [Doxorubicin]
